Converted amounts (≈) assume the structure as drawn.
Columns and labels:
[1] = system: P. aeruginosa (KCTC 1637); assay type: cell-based, Pseudomonas aeruginosa; conditions: CLSI broth dilution, MHB, 37 °C, 18 to 24 h
Procedure: (§1) Peptides were assessed for their antibacterial activity against four Gram-positive and four Gram-negative bacteria, including drug-resistant strains, in accordance with Clinical and Laboratory Standards Institute (CLSI) guidelines. The minimum inhibitory concentration (MIC) was determined using a microtiter broth dilution method. All bacterial strains were incubated overnight at 37 °C. Cultured bacteria were then diluted 10-fold in Muller–Hinton Broth (MHB) medium (Difco, Detroit, MI, USA) and incubated for 3 h to reach mid-log phase. Following the establishment of mid-log phase cultures, bacteria were inoculated into sterile 96-well plates containing serially diluted peptides. The MIC was defined as the lowest concentration of peptides that prevented observable turbidity after incubation of the plates at 37 °C for 18 to 24 h.

[2] = system: MDRPA (CCARM 2095); assay type: cell-based, Pseudomonas aeruginosa; conditions: CLSI broth dilution, MHB, 37 °C, 18 to 24 h
Procedure: as §1

[3] = system: S. typhimurium (KCTC 1926); assay type: cell-based, Salmonella typhimurium; conditions: CLSI broth dilution, MHB, 37 °C, 18 to 24 h
Procedure: as §1

[4] = system: B. subtilis (KCTC 3068); assay type: cell-based, Bacillus subtilis; conditions: CLSI broth dilution, MHB, 37 °C, 18 to 24 h
Procedure: as §1

[5] = system: MRSA (CCARM 3090); assay type: cell-based, Staphylococcus aureus; conditions: CLSI broth dilution, MHB, 37 °C, 18 to 24 h
Procedure: as §1

[6] = system: S. aureus (KCTC 1621); assay type: cell-based, Staphylococcus aureus; conditions: CLSI broth dilution, MHB, 37 °C, 18 to 24 h, no observable turbidity
Procedure: as §1

[7] = system: E. coli (KCTC 1682); assay type: cell-based, Escherichia coli; conditions: CLSI broth dilution, MHB, 37 °C, 18 to 24 h
Procedure: as §1

[8] = system: four Gram-positive and four Gram-negative bacteria; assay type: cell-based; conditions: over the eight strains of Table 2
Procedure: as §1

[9] = system: S. epidermidis (KCTC 1917); assay type: cell-based, Staphylococcus epidermidis; conditions: CLSI broth dilution, MHB, 37 °C, 18 to 24 h
Procedure: as §1

[10] = system: MDRPA; assay type: cell-based, Pseudomonas aeruginosa; conditions: 8 µM peptide
Procedure: (§2) We assessed the antibiofilm activity of the peptides by determining their minimum biofilm eradication concentration (MBEC) and minimum biofilm inhibition concentration (MBIC) against drug-resistant bacteria, including MDRPA and MRSA, as previously described. A 96-well plate containing a subculture of 1 × 10^6 CFU/200 μL of bacteria was incubated overnight at 37 °C with or without peptides to test for biofilm inhibition and eradication. The untreated culture served as the negative control, and LL-37 was used as the control peptide.

[11] = system: MRSA; assay type: cell-based, Staphylococcus aureus; conditions: 4 µM peptide
Procedure: as §2

SMILES | MIC [1] [µM] | MIC [2] [µM] | MIC [3] [µM] | MIC [4] [µM] | MIC [5] [µM] | MIC [6] [µM] | MIC [7] [µM] | GM, geometric mean of the MIC [8] [µM] | MIC [9] [µM] | inhibition of biofilm formation [10] [%] | inhibition of biofilm formation [11] [%]
CC[C@H](C)[C@H](NC(=O)CN)C(=O)NCC(=O)N[C@@H](C)C(=O)N[C@H](C(=O)NCCCCCC(=O)N[C@@H](CCCCN)C(=O)N[C@H](C(=O)N[C@@H](CC(C)C)C(=O)N[C@H](C(=O)N[C@H](C(=O)NCC(=O)N[C@@H](CC(C)C)C(=O)N1CCC[C@H]1C(=O)N[C@@H](C)C(=O)N[C@@H](CC(C)C)C(=O)N[C@H](C(=O)N[C@@H](CO)C(=O)N[C@@H](Cc1c[nH]c2ccccc12)C(=O)N[C@H](C(=O)N[C@@H](CCCCN)C(=O)N[C@@H](CCCNC(=N)N)C(=O)N[C@@H](CCCCN)C(=O)N[C@@H](CCCNC(=N)N)C(=O)N[C@@H](CCC(N)=O)C(=O)N[C@@H](CCC(N)=O)C(N)=O)[C@@H](C)CC)[C@@H](C)CC)[C@@H](C)O)[C@@H](C)O)C(C)C)C(C)C [Mel-LX1] | 64 (≈ 182 µg/mL) | >128 | 32 (≈ 91.1 µg/mL) | 16 (≈ 45.5 µg/mL) | >128 | 64 (≈ 182 µg/mL) | 64 (≈ 182 µg/mL) | 98 | 32 (≈ 91.1 µg/mL) | – | –
CC[C@H](C)[C@H](NC(=O)CN)C(=O)NCC(=O)N[C@@H](C)C(=O)N[C@H](C(=O)N[C@@H](CC(C)C)C(=O)N[C@@H](CCCCN)C(=O)N[C@H](C(=O)NCCCCCC(=O)N[C@H](C(=O)N[C@H](C(=O)NCC(=O)N[C@@H](CC(C)C)C(=O)N1CCC[C@H]1C(=O)N[C@@H](C)C(=O)N[C@@H](CC(C)C)C(=O)N[C@H](C(=O)N[C@@H](CO)C(=O)N[C@@H](Cc1c[nH]c2ccccc12)C(=O)N[C@H](C(=O)N[C@@H](CCCCN)C(=O)N[C@@H](CCCNC(=N)N)C(=O)N[C@@H](CCCCN)C(=O)N[C@@H](CCCNC(=N)N)C(=O)N[C@@H](CCC(N)=O)C(=O)N[C@@H](CCC(N)=O)C(N)=O)[C@@H](C)CC)[C@@H](C)CC)[C@@H](C)O)[C@@H](C)O)C(C)C)C(C)C [Mel-LX2] | 64 (≈ 182 µg/mL) | 128 (≈ 364 µg/mL) | 16 (≈ 45.5 µg/mL) | 16 (≈ 45.5 µg/mL) | 128 (≈ 364 µg/mL) | 32 (≈ 91.1 µg/mL) | 32 (≈ 91.1 µg/mL) | 56 | 32 (≈ 91.1 µg/mL) | – | –
CC[C@H](C)[C@H](NC(=O)CN)C(=O)NCC(=O)N[C@@H](C)C(=O)N[C@H](C(=O)N[C@@H](CC(C)C)C(=O)N[C@@H](CCCCN)C(=O)N[C@H](C(=O)N[C@@H](CC(C)C)C(=O)N[C@H](C(=O)N[C@H](C(=O)NCC(=O)N[C@@H](CC(C)C)C(=O)N1CCC[C@H]1C(=O)N[C@@H](C)C(=O)N[C@@H](CC(C)C)C(=O)N[C@H](C(=O)N[C@@H](CO)C(=O)N[C@@H](Cc1c[nH]c2ccccc12)C(=O)N[C@H](C(=O)N[C@@H](CCCCN)C(=O)N[C@@H](CCCNC(=N)N)C(=O)N[C@@H](CCCCN)C(=O)N[C@@H](CCCNC(=N)N)C(=O)N[C@@H](CCC(N)=O)C(=O)N[C@@H](CCC(N)=O)C(N)=O)[C@@H](C)CC)[C@@H](C)CC)[C@@H](C)O)[C@@H](C)O)C(C)C)C(C)C [Melittin] | 16 (≈ 45.5 µg/mL) | 8 (≈ 22.8 µg/mL) | 16 (≈ 45.5 µg/mL) | 16 (≈ 45.5 µg/mL) | 4 (≈ 11.4 µg/mL) | 8 (≈ 22.8 µg/mL) | 8 (≈ 22.8 µg/mL) | – | – | – | –
CC[C@H](C)[C@H](NC(=O)CN)C(=O)NCC(=O)N[C@@H](C)C(=O)N[C@H](C(=O)NCCCCCC(=O)N[C@@H](CCCCN)C(=O)N[C@H](C(=O)NCCCCCC(=O)N[C@H](C(=O)N[C@H](C(=O)NCC(=O)NCCCCCC(=O)N1CCC[C@H]1C(=O)N[C@@H](C)C(=O)NCCCCCC(=O)N[C@H](C(=O)N[C@@H](CO)C(=O)N[C@@H](Cc1c[nH]c2ccccc12)C(=O)N[C@H](C(=O)N[C@@H](CCCCN)C(=O)N[C@@H](CCCNC(=N)N)C(=O)N[C@@H](CCCCN)C(=O)N[C@@H](CCCNC(=N)N)C(=O)N[C@@H](CCC(N)=O)C(=O)N[C@@H](CCC(N)=O)C(N)=O)[C@@H](C)CC)[C@@H](C)CC)[C@@H](C)O)[C@@H](C)O)C(C)C)C(C)C [Mel-LX5] | >64 | >128 | >64 | >64 | >128 | >128 | >128 | 192 | >64 | – | –
CC[C@H](C)[C@H](NC(=O)CN)C(=O)NCC(=O)N[C@@H](C)C(=O)N[C@H](C(=O)N[C@@H](CC(C)C)C(=O)N[C@@H](CCCCN)C(=O)N[C@H](C(=O)N[C@@H](CC(C)C)C(=O)N[C@H](C(=O)N[C@H](C(=O)NCC(=O)N[C@@H](CC(C)C)C(=O)N1CCC[C@H]1C(=O)N[C@@H](C)C(=O)NCCCCCC(=O)N[C@H](C(=O)N[C@@H](CO)C(=O)N[C@@H](Cc1c[nH]c2ccccc12)C(=O)N[C@H](C(=O)N[C@@H](CCCCN)C(=O)N[C@@H](CCCNC(=N)N)C(=O)N[C@@H](CCCCN)C(=O)N[C@@H](CCCNC(=N)N)C(=O)N[C@@H](CCC(N)=O)C(=O)N[C@@H](CCC(N)=O)C(N)=O)[C@@H](C)CC)[C@@H](C)CC)[C@@H](C)O)[C@@H](C)O)C(C)C)C(C)C [Mel-LX4] | 64 (≈ 182 µg/mL) | 128 (≈ 364 µg/mL) | 32 (≈ 91.1 µg/mL) | 32 (≈ 91.1 µg/mL) | 128 (≈ 364 µg/mL) | 32 (≈ 91.1 µg/mL) | 32 (≈ 91.1 µg/mL) | 60 | 32 (≈ 91.1 µg/mL) | – | –
CC[C@H](C)[C@H](NC(=O)CN)C(=O)NCC(=O)N[C@@H](C)C(=O)N[C@H](C(=O)N[C@@H](CC(C)C)C(=O)N[C@@H](CCCCN)C(=O)N[C@H](C(=O)N[C@@H](CC(C)C)C(=O)N[C@H](C(=O)N[C@H](C(=O)NCC(=O)NCCCCCC(=O)N1CCC[C@H]1C(=O)N[C@@H](C)C(=O)N[C@@H](CC(C)C)C(=O)N[C@H](C(=O)N[C@@H](CO)C(=O)N[C@@H](Cc1c[nH]c2ccccc12)C(=O)N[C@H](C(=O)N[C@@H](CCCCN)C(=O)N[C@@H](CCCNC(=N)N)C(=O)N[C@@H](CCCCN)C(=O)N[C@@H](CCCNC(=N)N)C(=O)N[C@@H](CCC(N)=O)C(=O)N[C@@H](CCC(N)=O)C(N)=O)[C@@H](C)CC)[C@@H](C)CC)[C@@H](C)O)[C@@H](C)O)C(C)C)C(C)C [Mel-LX3] | 16 (≈ 45.5 µg/mL) | 8 (≈ 22.8 µg/mL) | 16 (≈ 45.5 µg/mL) | 16 (≈ 45.5 µg/mL) | 4 (≈ 11.4 µg/mL) | 8 (≈ 22.8 µg/mL) | 16 (≈ 45.5 µg/mL) | 12.5 | 16 (≈ 45.5 µg/mL) | ~90 | ~90

— publication PMC11201590, “Enhancing Selective Antimicrobial and Antibiofilm Activities of Melittin through 6-Aminohexanoic Acid Substitution” (Biomolecules, 2024)
